How the values were obtained:
human CTPS1 versus CTPS2 = test: Human CTPS1 versus CTPS2 selectivity assessment by RapidFire/MS analysis; format: biochemical; settings: Table 27
Description: Biological Example 2—RapidFire/MS-Based Enzyme Selectivity Assays.
Human CTPS1 Versus CTPS2 Selectivity Assessment by RapidFire/MS Analysis.
The enzyme inhibitory activities against each target isoform of interest may be determined for the compounds of the invention using an optimised RapidFire high-throughput mass spectrometry (RF/MS) assay format. RF/MS assays for both human CTPS1 and CTPS2 may be performed in assay buffer consisting of 50 mM HEPES (Merck), 20 mM MgCl2, 5 mM KCl, 1 mM DTT, 0.01% Tween-20, pH to 8.0 accordingly. Human full-length active C-terminal FLAG-His-tag CTPS1 (UniProtKB-P17812, CTPS[1-591]-[…]) may be obtained from Proteros biostructures GmbH. Human full length active C-terminal FLAG-His-Avi tagged CTPS2 (UniProtKB-Q9NRF8, CTPS2 [1-586]-[…]) may be obtained from Harker Bio.
Human CTPS (1 or 2) protein may be prepared in 1× assay buffer to the final working protein concentration required for the reaction. […] Each mixture may be incubated for an appropriate amount of time per isoform within the determined linear phase of the reaction at 25° C. […]
In all cases, the enzyme converts UTP to CTP. […] Readout for data analysis may be calculated as the ratio between the peak area of the product CTP and the internal standard ^13C9-^15N3-CTP. […]
Fold selectivity between CTPS1 and CTPS2 was subsequently calculated according to the following equation: […]

human CTPS1 = human CTPS1 (Homo sapiens, UniProt P17812); test: Human CTPS1 enzyme inhibition (ADP-Glo Max assay); settings: read-out: CTPS1 (Human CTPS1 Enzyme Inhibition data grouped by potency range, IC50), Table 24
Description: Biological Example 1—Human CTPS1 Enzyme Inhibition
The enzyme inhibitory activities of compounds invented against the target of interest were determined using the ADP-Glo™ Max assay (Promega, UK). Assays for human CTPS1 were performed in 1× assay buffer containing 50 mM Tris, 10 mM MgCl2, 0.01% Tween-20, pH to 8.0 accordingly. Finally, immediately before use, L-cysteine was added to the 1× assay buffer to a final concentration of 2 mM. All reagents are from Sigma-Aldrich unless specified otherwise. Human full length active C-terminal FLAG-Hiss-tag CTPS1 (UniProtKB-P17812, CTPS[1-591]-[…]) was obtained from Proteros biostructures GmbH.
3× human CTPS1 protein was prepared in 1× assay buffer to the final working protein concentration required for the reaction. […] The enzymatic reaction was then initiated by addition of a 2 uL per well volume of a pre-mixed substrate mix (UltraPure ATP from ADP-Glo™ Max kit (0.31 mM), GTP (0.034 mM), UTP (0.48 mM) and L-glutamine (0.186 mM)) and the mixture was incubated for an appropriate amount of time within the determined linear phase of the reaction at 25° C. under sealed plate conditions with constant agitation at 500 revolutions per minute (rpm). […]

SMILES: CCOc1cncc(-c2ccc(NC(=O)C3(c4ccnc(NS(=O)(=O)N(C)C)n4)CCOCC3)nc2)n1
- Selectivity (fold selectivity between CTPS1 and CTPS2) (human CTPS1 versus CTPS2): +++ (>60 fold (+++))
- IC50 (human CTPS1): 100 to 1000 nM

From US20230002352A1, “SULFONAMIDE DERIVATIVES AS CTPS1 INHIBITORS” (Step Pharma S.A.S., priority 2019, published 2023)
